Our source for the IC50 values is patent US8426588B2, “Phenylalanine derivatives” (Ajinomoto Co, Inc., priority 2000, dated 2013).

Chains of the proteins cited; added tags and fusions are not shown. Residues count along the entry.
UniProt P05556, 21-798 limits assumed: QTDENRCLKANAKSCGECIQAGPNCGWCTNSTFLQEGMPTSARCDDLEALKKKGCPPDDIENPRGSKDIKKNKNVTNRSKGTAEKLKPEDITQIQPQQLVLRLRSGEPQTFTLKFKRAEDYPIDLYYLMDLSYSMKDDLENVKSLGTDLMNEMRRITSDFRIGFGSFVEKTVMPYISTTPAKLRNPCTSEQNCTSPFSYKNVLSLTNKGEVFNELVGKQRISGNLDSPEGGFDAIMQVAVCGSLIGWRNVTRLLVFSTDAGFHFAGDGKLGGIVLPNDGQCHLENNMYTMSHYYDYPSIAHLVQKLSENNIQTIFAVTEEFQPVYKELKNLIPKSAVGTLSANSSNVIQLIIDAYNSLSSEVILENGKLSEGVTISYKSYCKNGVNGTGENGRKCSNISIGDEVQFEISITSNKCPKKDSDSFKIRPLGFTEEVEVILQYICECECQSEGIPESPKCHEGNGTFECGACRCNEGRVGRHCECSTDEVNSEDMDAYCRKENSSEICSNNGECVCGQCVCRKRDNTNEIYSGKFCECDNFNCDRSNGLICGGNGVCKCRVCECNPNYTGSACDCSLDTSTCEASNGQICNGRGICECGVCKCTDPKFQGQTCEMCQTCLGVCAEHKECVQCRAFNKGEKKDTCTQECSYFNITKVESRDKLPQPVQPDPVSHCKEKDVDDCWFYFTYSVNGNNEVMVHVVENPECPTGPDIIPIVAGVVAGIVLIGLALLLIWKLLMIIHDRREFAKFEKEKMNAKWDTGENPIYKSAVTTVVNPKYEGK
UniProt P13612, 34-1032 limits assumed: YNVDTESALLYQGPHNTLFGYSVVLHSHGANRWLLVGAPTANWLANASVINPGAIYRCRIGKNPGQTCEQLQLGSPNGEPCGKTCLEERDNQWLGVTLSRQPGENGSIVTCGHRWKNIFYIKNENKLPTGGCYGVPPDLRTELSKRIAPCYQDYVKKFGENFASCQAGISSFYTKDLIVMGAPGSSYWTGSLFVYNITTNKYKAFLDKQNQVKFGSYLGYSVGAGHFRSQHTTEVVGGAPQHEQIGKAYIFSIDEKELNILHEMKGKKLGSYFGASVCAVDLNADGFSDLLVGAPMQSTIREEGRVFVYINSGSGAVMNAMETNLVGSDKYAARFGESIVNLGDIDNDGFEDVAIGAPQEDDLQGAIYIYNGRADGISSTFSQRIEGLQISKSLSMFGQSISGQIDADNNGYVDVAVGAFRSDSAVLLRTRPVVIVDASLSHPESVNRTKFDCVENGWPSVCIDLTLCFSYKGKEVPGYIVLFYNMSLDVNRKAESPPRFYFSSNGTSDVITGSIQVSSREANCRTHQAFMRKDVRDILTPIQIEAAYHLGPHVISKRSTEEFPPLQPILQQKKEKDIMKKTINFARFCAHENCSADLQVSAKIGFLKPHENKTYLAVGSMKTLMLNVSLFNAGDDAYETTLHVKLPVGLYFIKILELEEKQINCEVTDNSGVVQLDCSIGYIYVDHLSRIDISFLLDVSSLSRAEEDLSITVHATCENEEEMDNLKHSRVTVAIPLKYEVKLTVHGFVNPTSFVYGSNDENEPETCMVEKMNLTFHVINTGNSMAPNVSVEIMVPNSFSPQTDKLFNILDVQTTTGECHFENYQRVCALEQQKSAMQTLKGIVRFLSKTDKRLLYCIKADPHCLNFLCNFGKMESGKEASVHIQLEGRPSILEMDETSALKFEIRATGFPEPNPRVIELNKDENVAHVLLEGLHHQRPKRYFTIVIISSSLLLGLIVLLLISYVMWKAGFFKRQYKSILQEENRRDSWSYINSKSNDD
UniProt P26010, 20-798 limits assumed: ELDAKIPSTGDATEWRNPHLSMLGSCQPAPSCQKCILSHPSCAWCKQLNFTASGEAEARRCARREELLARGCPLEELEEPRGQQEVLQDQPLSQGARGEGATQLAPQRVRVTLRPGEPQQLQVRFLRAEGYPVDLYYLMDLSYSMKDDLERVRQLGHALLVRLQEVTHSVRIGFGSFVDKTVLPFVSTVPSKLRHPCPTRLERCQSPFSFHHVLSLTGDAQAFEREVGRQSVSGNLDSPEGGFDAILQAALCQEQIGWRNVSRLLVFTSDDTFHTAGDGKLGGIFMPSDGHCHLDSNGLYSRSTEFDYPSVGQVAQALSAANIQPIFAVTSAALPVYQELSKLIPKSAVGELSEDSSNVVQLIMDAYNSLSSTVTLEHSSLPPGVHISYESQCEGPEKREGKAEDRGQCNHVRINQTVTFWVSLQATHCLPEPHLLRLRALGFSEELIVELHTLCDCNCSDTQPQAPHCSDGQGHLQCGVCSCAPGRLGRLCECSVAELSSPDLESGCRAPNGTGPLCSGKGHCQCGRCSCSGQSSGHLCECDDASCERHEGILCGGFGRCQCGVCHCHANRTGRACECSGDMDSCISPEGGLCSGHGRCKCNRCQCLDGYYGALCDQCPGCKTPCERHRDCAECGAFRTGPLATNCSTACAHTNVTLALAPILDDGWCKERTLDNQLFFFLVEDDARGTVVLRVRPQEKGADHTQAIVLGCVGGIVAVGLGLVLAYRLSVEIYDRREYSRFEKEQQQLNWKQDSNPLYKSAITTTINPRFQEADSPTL

In one test the target is integrin α4β1 (Homo sapiens, UniProt P05556+P13612). In words: VCAM antagonist activity (VCAM-1/α4β1 binding assay), Jurkat cells binding to VCAM-1. Format: cell-based. Conditions: read-out: VCAM antagonistic activity (IC50) α4β1; Jurkat human T cells binding to recombinant human VCAM-1.
The next test has as its target integrin α4β7 (Homo sapiens, UniProt P13612+P26010). In words: VCAM antagonistic activity (VCAM-1/α4β7 binding assay), RPMI-8866 cells binding to VCAM-1. The test is classed as cell-based. Conditions: read-out: VCAM antagonistic activity (IC50) α4β7; RPMI-8866 human B lymphoma cells binding to recombinant human VCAM-1; binding buffer with 4 mM MnCl2.

`O=C(N[C@@H](Cc1ccc(-n2c(=S)[nH]c3ccccc3c2=O)cc1)C(=O)O)c1c(Cl)cccc1Cl`: the IC50 on integrin α4β1 came to 1260 nM; at integrin α4β7 it was 26 nM.
Regarding `Cn1c(=O)n(-c2ccc(C[C@H](NC(=O)c3c(Cl)cccc3Cl)C(=O)O)cc2)c(=O)c2nccnc21`, at integrin α4β1, the IC50 came to 60 nM.
Take `O=C(N[C@@H](Cc1ccc(-n2c(=O)c3ccccc3n(-c3ccccc3)c2=O)cc1)C(=O)O)c1c(Cl)cccc1Cl`: the concentration for half-maximal inhibition (IC50) at integrin α4β7 worked out at 20 nM.
